{"source": "patent US20060067913A1", "about": "“HCV therapy” (priority 2003, published 2006)", "type_in_all_cases": "in vivo, human", "key": {"[1]": {"assay": "Example 1: biochemical indices of the blood (Al-AT, As-AT, bilirubin)", "method": "(§1) Eleven patients with chronic HCV infection (measured by HCV serum RNA PCR) and liver disease (measure by elevated levels of Asp and Ala transaminases), were treated with injections of recombinant alpha2 interferon plus 2 mg HEP1/5 ml water solution by mouth twice a day (Treatment Group). Ten patients with chronic HCV infection were treated with recombinant alpha2 interferon alone (Control Group).\n(§2) 21 patients (12 women, 9 men) aged from 18 to 55 years, sick with chronic hepatitis C participated in the study at The Gastroenterological Center in the Clinical Infectious Hospital No 1, Moscow. The diagnosis of chronic hepatitis C was based on the presence of specific antibodies to HCV in the blood of the patients during at least 6 months. The presence of HCV RNA in the peripheral blood was determined by PCR (polymerase chain reaction), and in all patients in the trial were in the replication phase of HCV infection. According to clinical data, and to the results of a biochemical study of the blood, in the majority of patients a moderate activity of chronic hepatitis C disease was well established.\n(§3) All patients who participated in this investigation were treated with a recombinant alpha interferon (reaferon) at a dose of 3 millions units, 3 times a week. In addition to the background interferon therapy, 11 patients were treated with HEP1, 2 mg orally (the preparation was dissolved in 5 ml of water, held 2-3 min in the mouth, then swallowed) once a day, daily during 3 months. Patients were divided into 2 groups, i.e. the Treatment Group (11 patients who obtained the combination of interferon antiviral therapy with HEP1) and the Control Group (10 people patients who obtained interferon antiviral therapy only).\n(§4) Treatment within the framework of the investigation continued for 3 months. […] For the duration of this study, all patients attended the designated doctor not less than 4 times, directly before beginning treatment, and 1, 2 and 3 months after the beginning of treatment. Within the same period, in addition to the clinical inspection, clinical and biochemical analyses of the blood were conducted, and viral load was assessed by HCV RNA in a semi-quantitative PCR assay. The final estimation of efficacy of the treatment was conducted 3 months after the beginning of treatment. The criteria for efficacy were prevalence of symptoms; frequency of an improvement (or normalization) in the activity of hepatic enzymes Al-AT, As-AT, gamma GT; frequency of improvement in the clinical indices of the blood; and results of PCR analysis of HCV RNA (viral replication). Statistical processing of the results of treatment was conducted with the use of a computer program called ‘Statgraphics’.\nThe patients who participated in the study were sick with chronic hepatitis C, and suffered from a moderate increase in the level of Al-AT and As-AT in the blood, an indication of the destructive inflammation of the hepatocytes. In both groups, after only 1 month of treatment, a significant decrease in the level of Al-AT and As-AT in the blood occurred, which continued during the next month. […] The average values of general bilirubin in both groups of patients were above the upper boundary of normal levels. In the course of treatment, the level of general bilirubin of the blood decreased by 15-20% to normal values."}, "HCV": {"tested_on": "HCV", "assay": "Example 1: HCV RNA viral load by semi-quantitative PCR in chronic hepatitis C patients", "method": "as §1, §2, §3, §4\nIn all 21 patients investigated, a semi-quantitative PCR estimation of the level of HCV RNA in the blood was performed and the titre of HCV RNA varied from 10^3 to 10^4 at the start of the study. In the Control Group, after 3 months of treatment, in 7 (70%) of 10 people the titres of HCV RNA were reliably lower than the pretreatment levels. HCV RNA ceased to be detected in 2 (20%) of 10 patients. On average, the titre of HCV RNA was reduced by 1.3 log in the Control Group."}, "[2]": {"assay": "Example 1: clinical symptoms and interferon side-effects in chronic hepatitis C patients", "method": "as §1, §2, §3, §4\nDuring the course of treatment, the presence and the manifestation of dyspeptic phenomena were evaluated (pain in the right subcostal area, bitterness in the mouth), asthenovegetative symptoms (weakness, irritability) and arthralgia. In the Control Group, the frequency of complaints of expressed general weakness grew from 50% to 80%, irritability from 0 to 100%, and arthralgia from 0 to 90%. Related deterioration in the health of patients during the course of interferon therapy can be explained by the widely known side-effects caused by all preparations of interferon."}, "[3]": {"assay": "Example 1: hematological / immunology indices of the blood", "method": "as §1, §2, §3, §4\nThe side-effects of prolonged therapy with recombinant interferon appear in changes in a number of indices of the blood."}, "[4]": {"conditions": "in the course of 3 months of treatment"}}}
{"substance": "Interferon only: recombinant alpha interferon (reaferon), 3 millions units, 3 times a week", "values": [{"measurement": "Ala Trans", "setting": "[1]; Before treatment, group mean", "value": 194.7}, {"measurement": "Asp Trans", "setting": "[1]; Before treatment, group mean", "value": 97.1}, {"measurement": "Ala Trans", "setting": "[1]; Month 1", "value": 90.7}, {"measurement": "Asp Trans", "setting": "[1]; Month 1", "value": 72.2}, {"measurement": "Ala Trans", "setting": "[1]; Month 2", "value": 62.4}, {"measurement": "Asp Trans", "setting": "[1]; Month 2", "value": 53.7}, {"measurement": "Ala Trans", "setting": "[1]; Month 3", "value": 71.5}, {"measurement": "Asp Trans", "setting": "[1]; Month 3", "value": 63}, {"measurement": "course of Al-AT and As-AT levels in the blood", "setting": "[1]; over 3 months, in words", "value": "tended to increase again in the third month"}, {"measurement": "transaminase levels in the blood", "setting": "[1]; summary in words", "value": "still had significantly elevated level of transaminases in the blood"}, {"measurement": "HCV_RNA Log load", "setting": "HCV; Before treatment, group mean", "value": 3.5, "unit": "Log"}, {"measurement": "HCV_RNA Log load", "setting": "HCV; Month 3, group mean", "value": 2.2, "unit": "Log"}, {"measurement": "average reduction of titre of HCV RNA", "setting": "HCV; after 3 months of treatment", "value": 1.3, "unit": "log"}, {"measurement": "patients in whom HCV RNA ceased to be detected", "setting": "HCV; after 3 months of treatment", "value": 20, "unit": "%"}, {"measurement": "patients who failed to respond to treatment", "setting": "HCV; after 3 months of treatment", "value": 30, "unit": "%"}, {"measurement": "patients with titres of HCV RNA reliably lower than pretreatment levels", "setting": "HCV; after 3 months of treatment", "value": 70, "unit": "%"}, {"measurement": "increase in the viral load during treatment", "setting": "HCV; in words", "value": "in one of these patients the level of virus increased 10 times"}, {"measurement": "Weakness, % of patient group", "setting": "[2]; Before treatment, group mean", "value": 50, "unit": "%"}, {"measurement": "Bitter taste, % of patient group", "setting": "[2]; Month 1", "value": 70, "unit": "%"}, {"measurement": "Pain, % of patient group", "setting": "[2]; Month 1", "value": 80, "unit": "%"}, {"measurement": "Weakness, % of patient group", "setting": "[2]; Month 1", "value": 50, "unit": "%"}, {"measurement": "aching joints, % of patient group", "setting": "[2]; Month 1", "value": 0, "unit": "%"}, {"measurement": "Bitter taste, % of patient group", "setting": "[2]; Month 2", "value": 80, "unit": "%"}, {"measurement": "Pain, % of patient group", "setting": "[2]; Month 2", "value": 70, "unit": "%"}, {"measurement": "Weakness, % of patient group", "setting": "[2]; Month 2", "value": 70, "unit": "%"}, {"measurement": "aching joints, % of patient group", "setting": "[2]; Month 2", "value": 20, "unit": "%"}, {"measurement": "Bitter taste, % of patient group", "setting": "[2]; Month 3", "value": 80, "unit": "%"}, {"measurement": "Pain, % of patient group", "setting": "[2]; Month 3", "value": 70, "unit": "%"}, {"measurement": "Weakness, % of patient group", "setting": "[2]; Month 3", "value": 80, "unit": "%"}, {"measurement": "aching joints, % of patient group", "setting": "[2]; Month 3", "value": 90, "unit": "%"}, {"measurement": "Bitter taste, % of patient group", "setting": "[2]; before treatment", "value": 80, "unit": "%"}, {"measurement": "Pain, % of patient group", "setting": "[2]; before treatment", "value": 70, "unit": "%"}, {"measurement": "aching joints, % of patient group", "setting": "[2]; before treatment", "value": 0, "unit": "%"}, {"measurement": "frequency of arthralgia", "setting": "[2]; before treatment", "value": 0, "unit": "%"}, {"measurement": "frequency of complaints of general weakness", "setting": "[2]; before treatment", "value": 50, "unit": "%"}, {"measurement": "frequency of irritability", "setting": "[2]; before treatment", "value": 0, "unit": "%"}, {"measurement": "frequency of complaints of pain in the right subcostal area", "setting": "[2]; during the course of 3 months of treatment", "value": "did not change"}, {"measurement": "frequency of arthralgia", "setting": "[2]; [4]", "value": 90, "unit": "%"}, {"measurement": "frequency of complaints of general weakness", "setting": "[2]; [4]", "value": 80, "unit": "%"}, {"measurement": "frequency of irritability", "setting": "[2]; [4]", "value": 100, "unit": "%"}, {"measurement": "Leucocytes", "setting": "[3]; Before treatment, group mean", "value": 6.09}, {"measurement": "Lymphocytes", "setting": "[3]; Before treatment, group mean", "value": 26.3}, {"measurement": "Monocytes", "setting": "[3]; Before treatment, group mean", "value": 5.4}, {"measurement": "Leucocytes", "setting": "[3]; Month 1", "value": 4.7}, {"measurement": "Lymphocytes", "setting": "[3]; Month 1", "value": 29.1}, {"measurement": "Monocytes", "setting": "[3]; Month 1", "value": 5.1}, {"measurement": "Leucocytes", "setting": "[3]; Month 2", "value": 4.11}, {"measurement": "Lymphocytes", "setting": "[3]; Month 2", "value": 31}, {"measurement": "Monocytes", "setting": "[3]; Month 2", "value": 6.4}, {"measurement": "Leucocytes", "setting": "[3]; Month 3", "value": 4.51}, {"measurement": "Lymphocytes", "setting": "[3]; Month 3", "value": 37.5}, {"measurement": "Monocytes", "setting": "[3]; Month 3", "value": 4.7}, {"measurement": "hematological indices (hemoglobin, thrombocytes, neutrophils, granulocytes, eosinophils, lymphocytes, macrophages/monocytes)", "setting": "[3]; during 3 months of treatment, in words", "value": "significant reduction in the maintenance of hemoglobin levels, the number of thrombocytes and especially in the quantity of mature neutrophilic granulocytes"}]}
